{
  "sequences": {"note": "By UniProt entry, the sequences of proteins in these tests, tags left out.", "UniProt P51532, whole entry": "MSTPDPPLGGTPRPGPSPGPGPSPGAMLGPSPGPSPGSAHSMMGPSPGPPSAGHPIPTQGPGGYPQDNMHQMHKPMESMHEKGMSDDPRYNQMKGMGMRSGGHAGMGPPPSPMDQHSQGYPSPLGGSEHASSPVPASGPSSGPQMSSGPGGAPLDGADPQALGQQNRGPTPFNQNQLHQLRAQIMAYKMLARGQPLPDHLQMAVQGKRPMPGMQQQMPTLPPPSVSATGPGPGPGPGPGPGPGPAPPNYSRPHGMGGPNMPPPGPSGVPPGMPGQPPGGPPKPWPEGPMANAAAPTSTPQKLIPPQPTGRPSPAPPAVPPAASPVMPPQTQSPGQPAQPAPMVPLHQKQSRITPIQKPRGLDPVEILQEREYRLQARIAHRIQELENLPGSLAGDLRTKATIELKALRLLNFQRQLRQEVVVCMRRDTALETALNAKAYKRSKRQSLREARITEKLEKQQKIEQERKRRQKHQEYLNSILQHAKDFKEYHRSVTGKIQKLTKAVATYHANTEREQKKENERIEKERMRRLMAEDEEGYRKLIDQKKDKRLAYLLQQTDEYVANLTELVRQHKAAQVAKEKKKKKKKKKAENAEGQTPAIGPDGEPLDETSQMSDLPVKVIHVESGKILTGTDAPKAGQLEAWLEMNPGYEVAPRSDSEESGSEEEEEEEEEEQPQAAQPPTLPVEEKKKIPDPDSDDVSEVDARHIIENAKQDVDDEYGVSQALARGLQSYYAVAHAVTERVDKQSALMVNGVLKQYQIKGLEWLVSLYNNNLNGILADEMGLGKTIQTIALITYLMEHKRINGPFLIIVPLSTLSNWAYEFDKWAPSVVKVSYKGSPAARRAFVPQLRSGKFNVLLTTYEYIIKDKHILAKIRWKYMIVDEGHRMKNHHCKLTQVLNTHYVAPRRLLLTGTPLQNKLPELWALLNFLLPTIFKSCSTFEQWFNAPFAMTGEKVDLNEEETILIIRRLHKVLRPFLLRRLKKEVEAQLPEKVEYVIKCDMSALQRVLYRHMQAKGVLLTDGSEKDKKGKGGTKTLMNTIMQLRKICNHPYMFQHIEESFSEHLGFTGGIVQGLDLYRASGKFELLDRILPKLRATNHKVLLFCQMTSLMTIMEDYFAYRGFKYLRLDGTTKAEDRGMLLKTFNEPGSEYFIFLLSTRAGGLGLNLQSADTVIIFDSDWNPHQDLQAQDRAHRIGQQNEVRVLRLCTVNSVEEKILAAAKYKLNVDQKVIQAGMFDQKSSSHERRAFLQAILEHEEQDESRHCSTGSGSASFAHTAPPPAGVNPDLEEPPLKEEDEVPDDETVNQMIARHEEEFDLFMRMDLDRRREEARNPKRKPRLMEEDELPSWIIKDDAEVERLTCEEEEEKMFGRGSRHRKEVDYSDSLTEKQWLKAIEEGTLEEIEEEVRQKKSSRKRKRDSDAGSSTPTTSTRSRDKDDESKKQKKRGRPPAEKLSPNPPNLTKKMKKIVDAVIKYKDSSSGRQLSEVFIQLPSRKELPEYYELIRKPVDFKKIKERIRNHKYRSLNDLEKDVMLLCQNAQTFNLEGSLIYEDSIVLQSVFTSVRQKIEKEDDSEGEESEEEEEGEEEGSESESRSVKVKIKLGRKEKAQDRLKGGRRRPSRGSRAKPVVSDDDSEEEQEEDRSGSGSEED"},
  "source": "patent US20260193264A1",
  "about": "“BENZOYPARAZINE PYRAZINES AND THEIR USES” (FOGHORN THERAPEUTICS INC., priority 2022, published 2026)",
  "biological_target": "T1, HiBit-BRG1 fusion protein in stable HeLa cell line expressing HiBit-BRG1 and LgBit (Homo sapiens, UniProt P51532)",
  "T1 construct": "expressed in transfected cells",
  "assay": "HiBiT-BRG1 cell-based degradation assay (Nano-Glo HiBiT, 24 h)",
  "design": "dose or concentration left out as unconfirmed",
  "conditions": "read-out: BRG1 HiBit Degradation Maximum (%)",
  "procedure": "Procedure: A stable HeLa cell line expressing HiBiT-BRM was generated. On day 0, 5000 cells were seeded in 40 μL of media into each well of 384-well cell culture plates. […] Subsequently plates were incubated for 24 h in a standard tissue culture incubator and equilibrated at room temperature for 15 minutes. Nano-Glo HiBiT Lytic Detection System (Promega N3050) reagent was freshly prepared and 20 ul was added to each well. Upon addition of this LgBit-containing reagent, the HiBiT and LgBiT proteins associate to form the luminescent NanoBiT luciferase. The plates were shaken for 10 minutes at room temperature and the bioluminescence read using an EnVision plate reader (PerkinElmer). For measurement of BRG1 degradation, a stable HeLa cell line expressing HiBit-BRG1 and LgBit was generated. The same protocol as above was then followed. The degradation % was calculated using the following formula: % degradation=100%−100%×(Lumsample−LumLC)/(LumHC−LumLC). DMSO treated cells are employed as High Control (HC) and 2 μM of a known BRM/BRG1 degrader standard treated cells are employed as Low Control (LC).",
  "data": [
    {"smiles": "Cc1ncsc1-c1ccc([C@H](C)NC(=O)[C@@H]2C[C@@H](O)CN2C(=O)[C@@H](c2cc(N3CC4(CN(c5ccc6cc(-c7ccccc7O)nnc6c5)C4)C3)no2)C(C)C)cc1", "note": "(single isomer, unassigned) [Compound 51]", "values": [
      {"measurement": "Dmax", "result": "< 50", "unit": "%"}
    ]},
    {"smiles": "Cc1ncsc1-c1ccc([C@H](C)NC(=O)[C@@H]2C[C@@H](O)CN2C(=O)[C@H](C2CC2)n2cc(N3CC4(CN(c5ccc6cc(-c7ccccc7O)nnc6c5)C4)C3)nn2)cc1", "note": "(single isomer, unassigned) [Compound 210]", "values": [
      {"measurement": "Dmax", "result": "< 50", "unit": "%"}
    ]}
  ]
}
